Laboratory results taken from patent US20250188032A1, “NITROGEN-CONTAINING HETEROCYCLIC COMPOUNDS AND USES THEREOF” (BNH RESEARCH CO., LTD., priority 2022, published 2025).

Tested on: APP/PS1 mice hippocampus (Schaffer collateral-CA1)
Test: fEPSP slope and LTP in hippocampus of Alzheimer's animal model
Format: in vivo
Conditions: 15 months old
Protocol: 1 mg/ml of aducanumab or control antibody was used as a stock solution. For intravenous injection, the tail vein injection method was used. Aducanumab was administered at a dose of 5 mg/kg. Control antibody was administered using an antibody inactivated with aducanumab at a dose of 5 mg/kg. In the drug injection test, the compound was administered once a day for about 11 to 13 days. 5 mice were used for the compound administration group and the control group, respectively.
For TC or hippocampus slice preparation. 9 to 10 weeks-old male C57BL/6J mice were anesthetized with isoflurane. […]
Field recordings were made with a concentric bipolar electrode positioned in the stratum radiatum of the CA1 region using an extracellular glass pipette (3.5 MΩ) filled with aCSF. […] In all fEPSP experiments, the test stimulation were measured prior to the beginning of all the experiments (30 μA) and a test-pulse stimulation strength that evokes 50% of the maximum fEPSP was used. Baseline synaptic responses was recorded for 30 minutes, and then long-term potentiation (LTP) was induced by high-frequency stimulation (HFS; 100 Hz, 4 trains, 1 s duration, 20 s inter-train interval). […]
Excitatory postsynaptic potential (EPSP) was recorded by the whole-cell patch clamp method using a patch clamp amplifier (molecular devices, USA). […] It was then recorded for 60 minutes (LTP). […]

Substance: aducanumab [reference compound]
- Slope of fEPSP in CA1 region of Schaffer collateral circuit (synaptic efficacy): increased synaptic efficacy
- Synaptic long-term potentiation (LTP) of the excitatory SC pathway: significantly increased
